Results reported in patent publication US9624237B2 (priority 2015, dated 2017).

Test system: LPS induced NO production in RAW264.7 macrophages
Settings: 1 uM pretreatment 1 h, 100 ng/mL LPS 24 h; unstimulated 3.47±0.58, LPS alone 31.74±0.31 uM

C[C@@H]1C[C@H]2[C@@H]3CCC4=CC(=O)C=C[C@]4(C)[C@@]3(F)[C@@H](O)C[C@]2(C)[C@@]1(O)C(=O)CO [DEX, dexamethasone]
nitrite level in the supernatant of LPS stimulated RAW264.7 cells: 16.63 ± 0.20 µM
